Test results from paper PMC5963757, “Expression, purification, and inhibition profile of dihydrofolate reductase from the filarial nematode Wuchereria bancrofti” (PLoS ONE, 2018).

Target: BmDHFR (Brugia malayi, UniProt A0A4E9FIQ4)
Assay: biochemical
Description: Compounds (-)-epicatechin, (-)-epicatechin gallate, and vitexin were tested as inhibitors of WbDHFR and BmDHFR. The compounds (-)-epicatechin and (-)-epicatechin gallate were synthesized as described previously. […] Disappearance of DHF and NADPH was observed by measuring absorbance at 340 nm to measure the DHFR activity in a SpectraMax M3 microplate reader. […] All experiments were completed in triplicate.
A linear equation was fitted to the data at each substrate concentration. […] The KI values for BmDHFR in Table 1 were obtained using the Cheng-Prusoff Equation [18]. […] Inhibitor structures are shown in supporting information (S2 Fig).

## CN(Cc1cnc2nc(N)nc(N)c2n1)c1ccc(C(=O)N[C@@H](CCC(=O)O)C(=O)O)cc1 [Methotrexate, methotrexate]
  Ki: < 0.5 nM
IC50 BmDHFR, pH 6.0, 100 μM NADPH, 50 μM DHF, 40 nM BmDHFR, average of triplicates ± S.D.
  IC50: 2.2 ± 1.4 nM
IC50 against BmDHFR Average, average of three trials
  IC50: 2.21 nM
IC50 against BmDHFR Trial 1, individual trial
  IC50: 1.02 nM
IC50 against BmDHFR Trial 2, individual trial
  IC50: 1.93 nM
IC50 against BmDHFR Trial 3, individual trial
  IC50: 3.68 nM
